Assay results taken from ChEMBL document CHEMBL5523766 (J Med Chem, 2024).

The chains behind the UniProt entries cited, without tags or fusion partners. Where a name states a change or a piece, a line headed by the entry shows the natural chain unless it says otherwise.
UniProt P23458: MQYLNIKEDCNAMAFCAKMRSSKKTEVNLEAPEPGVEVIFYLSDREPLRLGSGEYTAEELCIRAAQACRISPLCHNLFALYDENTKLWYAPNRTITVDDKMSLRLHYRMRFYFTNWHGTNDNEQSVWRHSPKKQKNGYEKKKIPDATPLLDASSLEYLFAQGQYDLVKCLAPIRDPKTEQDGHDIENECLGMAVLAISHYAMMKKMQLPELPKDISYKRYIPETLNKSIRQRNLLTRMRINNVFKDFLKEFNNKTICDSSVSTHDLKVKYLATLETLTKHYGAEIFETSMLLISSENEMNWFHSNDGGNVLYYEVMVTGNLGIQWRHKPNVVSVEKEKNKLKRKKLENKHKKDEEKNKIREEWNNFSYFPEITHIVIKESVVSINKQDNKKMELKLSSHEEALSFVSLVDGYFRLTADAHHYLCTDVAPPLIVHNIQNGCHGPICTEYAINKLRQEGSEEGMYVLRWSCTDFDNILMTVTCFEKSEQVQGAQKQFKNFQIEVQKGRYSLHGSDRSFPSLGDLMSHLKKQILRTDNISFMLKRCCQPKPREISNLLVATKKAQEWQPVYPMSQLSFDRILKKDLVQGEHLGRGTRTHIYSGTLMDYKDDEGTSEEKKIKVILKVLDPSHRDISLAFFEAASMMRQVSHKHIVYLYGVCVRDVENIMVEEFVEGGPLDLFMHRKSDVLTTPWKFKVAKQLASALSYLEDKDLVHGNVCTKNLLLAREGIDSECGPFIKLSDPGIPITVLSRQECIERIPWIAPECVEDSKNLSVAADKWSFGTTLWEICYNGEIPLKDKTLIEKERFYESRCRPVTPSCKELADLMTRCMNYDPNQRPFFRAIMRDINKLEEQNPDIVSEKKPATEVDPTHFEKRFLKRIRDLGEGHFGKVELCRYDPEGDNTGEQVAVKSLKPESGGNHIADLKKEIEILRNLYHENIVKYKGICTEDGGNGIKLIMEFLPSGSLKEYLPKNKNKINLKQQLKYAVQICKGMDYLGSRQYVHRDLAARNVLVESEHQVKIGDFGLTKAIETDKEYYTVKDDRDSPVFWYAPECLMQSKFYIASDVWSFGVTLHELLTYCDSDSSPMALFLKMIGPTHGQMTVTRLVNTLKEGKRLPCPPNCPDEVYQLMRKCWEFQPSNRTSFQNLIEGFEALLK
UniProt P36888, whole entry: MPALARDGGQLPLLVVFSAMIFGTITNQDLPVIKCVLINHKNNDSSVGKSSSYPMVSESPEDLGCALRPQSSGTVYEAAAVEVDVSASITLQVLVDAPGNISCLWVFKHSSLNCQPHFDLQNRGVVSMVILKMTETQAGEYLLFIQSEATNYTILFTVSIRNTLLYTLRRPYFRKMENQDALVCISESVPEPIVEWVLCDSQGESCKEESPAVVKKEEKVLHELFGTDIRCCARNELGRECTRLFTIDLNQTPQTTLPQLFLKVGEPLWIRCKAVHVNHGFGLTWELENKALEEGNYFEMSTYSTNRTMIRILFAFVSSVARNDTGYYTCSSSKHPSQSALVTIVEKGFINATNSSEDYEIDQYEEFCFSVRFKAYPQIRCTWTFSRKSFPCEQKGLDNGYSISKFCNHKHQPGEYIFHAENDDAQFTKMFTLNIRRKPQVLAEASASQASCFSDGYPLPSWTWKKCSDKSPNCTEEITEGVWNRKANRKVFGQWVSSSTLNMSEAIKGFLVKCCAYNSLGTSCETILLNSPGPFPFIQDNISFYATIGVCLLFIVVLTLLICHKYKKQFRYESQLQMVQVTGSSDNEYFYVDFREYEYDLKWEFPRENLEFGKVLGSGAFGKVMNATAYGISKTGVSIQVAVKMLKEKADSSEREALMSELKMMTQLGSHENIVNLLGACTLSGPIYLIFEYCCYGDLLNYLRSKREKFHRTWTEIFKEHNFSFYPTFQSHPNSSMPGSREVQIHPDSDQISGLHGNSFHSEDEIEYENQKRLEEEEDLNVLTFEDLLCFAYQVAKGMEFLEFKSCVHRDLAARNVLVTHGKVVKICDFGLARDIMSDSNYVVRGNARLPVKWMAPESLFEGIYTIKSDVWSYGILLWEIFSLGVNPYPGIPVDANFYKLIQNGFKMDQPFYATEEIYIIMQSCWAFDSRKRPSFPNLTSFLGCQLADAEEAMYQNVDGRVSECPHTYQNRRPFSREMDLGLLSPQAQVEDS
UniProt P07948: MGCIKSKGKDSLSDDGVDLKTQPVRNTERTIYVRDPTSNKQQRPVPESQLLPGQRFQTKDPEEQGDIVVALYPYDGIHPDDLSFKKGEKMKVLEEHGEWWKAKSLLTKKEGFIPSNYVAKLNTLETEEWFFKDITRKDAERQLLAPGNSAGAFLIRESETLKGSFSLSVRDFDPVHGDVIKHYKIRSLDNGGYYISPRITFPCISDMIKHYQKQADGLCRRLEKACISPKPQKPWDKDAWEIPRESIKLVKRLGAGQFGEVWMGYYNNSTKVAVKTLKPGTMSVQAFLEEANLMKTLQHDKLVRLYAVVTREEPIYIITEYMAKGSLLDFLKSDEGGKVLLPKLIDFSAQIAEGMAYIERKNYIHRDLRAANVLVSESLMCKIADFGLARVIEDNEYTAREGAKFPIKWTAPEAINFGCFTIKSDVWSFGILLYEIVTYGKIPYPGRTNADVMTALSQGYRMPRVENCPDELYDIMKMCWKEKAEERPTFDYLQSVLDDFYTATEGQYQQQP
UniProt P54646: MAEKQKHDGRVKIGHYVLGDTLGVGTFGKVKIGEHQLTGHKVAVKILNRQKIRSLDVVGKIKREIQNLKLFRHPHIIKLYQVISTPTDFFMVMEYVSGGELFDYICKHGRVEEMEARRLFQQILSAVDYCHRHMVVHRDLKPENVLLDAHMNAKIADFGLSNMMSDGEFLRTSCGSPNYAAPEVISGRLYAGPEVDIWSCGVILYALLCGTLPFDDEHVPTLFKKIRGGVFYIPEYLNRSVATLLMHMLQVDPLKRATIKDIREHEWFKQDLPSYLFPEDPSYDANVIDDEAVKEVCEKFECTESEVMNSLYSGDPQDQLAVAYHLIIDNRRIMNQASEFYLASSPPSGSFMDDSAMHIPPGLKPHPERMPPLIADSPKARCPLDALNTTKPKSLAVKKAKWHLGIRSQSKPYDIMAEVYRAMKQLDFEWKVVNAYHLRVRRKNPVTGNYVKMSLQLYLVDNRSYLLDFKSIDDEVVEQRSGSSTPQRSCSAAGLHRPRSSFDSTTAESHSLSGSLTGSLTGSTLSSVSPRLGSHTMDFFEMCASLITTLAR
UniProt P54619: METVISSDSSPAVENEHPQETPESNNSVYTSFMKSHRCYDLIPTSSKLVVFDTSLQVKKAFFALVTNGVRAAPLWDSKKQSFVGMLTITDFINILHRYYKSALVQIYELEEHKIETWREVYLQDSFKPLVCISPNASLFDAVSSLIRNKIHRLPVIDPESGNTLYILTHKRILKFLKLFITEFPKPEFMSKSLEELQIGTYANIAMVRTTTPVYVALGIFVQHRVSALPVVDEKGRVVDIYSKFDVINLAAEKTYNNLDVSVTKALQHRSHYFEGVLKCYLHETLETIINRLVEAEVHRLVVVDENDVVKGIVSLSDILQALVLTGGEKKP
UniProt Q9Y478: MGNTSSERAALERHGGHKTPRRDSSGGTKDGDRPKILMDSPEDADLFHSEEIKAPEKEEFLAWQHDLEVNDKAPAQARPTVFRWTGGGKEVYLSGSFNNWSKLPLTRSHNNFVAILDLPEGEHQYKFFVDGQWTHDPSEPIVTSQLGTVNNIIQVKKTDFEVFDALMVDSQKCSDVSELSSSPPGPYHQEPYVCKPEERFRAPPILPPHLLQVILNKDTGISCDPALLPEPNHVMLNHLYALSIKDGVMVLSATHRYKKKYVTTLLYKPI
UniProt Q96GD4, whole entry: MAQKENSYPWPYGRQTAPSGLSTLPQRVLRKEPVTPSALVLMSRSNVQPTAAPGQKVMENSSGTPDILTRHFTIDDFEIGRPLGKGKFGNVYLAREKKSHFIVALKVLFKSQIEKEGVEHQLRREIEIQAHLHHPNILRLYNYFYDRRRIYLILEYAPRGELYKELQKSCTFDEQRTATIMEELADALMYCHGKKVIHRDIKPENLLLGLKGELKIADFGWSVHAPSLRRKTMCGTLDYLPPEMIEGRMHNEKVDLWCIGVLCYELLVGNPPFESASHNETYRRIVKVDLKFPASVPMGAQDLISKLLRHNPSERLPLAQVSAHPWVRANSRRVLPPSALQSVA
UniProt Q06187: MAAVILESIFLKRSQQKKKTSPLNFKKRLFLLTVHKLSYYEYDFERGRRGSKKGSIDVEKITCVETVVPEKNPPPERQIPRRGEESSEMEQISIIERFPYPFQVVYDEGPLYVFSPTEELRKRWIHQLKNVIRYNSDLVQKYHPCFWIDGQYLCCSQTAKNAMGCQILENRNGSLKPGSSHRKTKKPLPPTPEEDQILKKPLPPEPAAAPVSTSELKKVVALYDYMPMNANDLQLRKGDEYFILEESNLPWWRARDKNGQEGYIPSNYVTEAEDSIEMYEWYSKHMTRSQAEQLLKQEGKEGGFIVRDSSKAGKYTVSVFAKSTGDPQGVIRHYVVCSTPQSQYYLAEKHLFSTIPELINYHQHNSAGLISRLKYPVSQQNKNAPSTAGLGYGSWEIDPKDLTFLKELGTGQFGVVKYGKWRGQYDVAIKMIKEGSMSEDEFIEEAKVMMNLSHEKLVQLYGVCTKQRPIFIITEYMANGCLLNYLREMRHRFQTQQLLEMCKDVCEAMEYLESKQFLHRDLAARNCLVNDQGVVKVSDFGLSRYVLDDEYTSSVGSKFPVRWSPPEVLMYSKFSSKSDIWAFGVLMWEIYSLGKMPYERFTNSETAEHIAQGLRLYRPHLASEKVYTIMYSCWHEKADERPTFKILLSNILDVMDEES
UniProt Q9NWZ3, whole entry: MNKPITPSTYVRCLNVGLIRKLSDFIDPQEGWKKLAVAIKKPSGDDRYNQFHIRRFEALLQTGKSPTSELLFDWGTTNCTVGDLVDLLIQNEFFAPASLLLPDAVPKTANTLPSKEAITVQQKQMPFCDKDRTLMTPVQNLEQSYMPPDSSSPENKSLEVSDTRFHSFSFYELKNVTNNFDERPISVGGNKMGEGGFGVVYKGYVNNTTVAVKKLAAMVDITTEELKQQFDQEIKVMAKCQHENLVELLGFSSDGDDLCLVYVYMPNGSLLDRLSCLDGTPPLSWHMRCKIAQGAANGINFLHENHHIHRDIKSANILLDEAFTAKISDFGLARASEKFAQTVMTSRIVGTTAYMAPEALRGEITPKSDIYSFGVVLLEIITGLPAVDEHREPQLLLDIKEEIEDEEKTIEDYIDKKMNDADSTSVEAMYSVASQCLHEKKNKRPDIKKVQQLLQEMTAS
UniProt P06239: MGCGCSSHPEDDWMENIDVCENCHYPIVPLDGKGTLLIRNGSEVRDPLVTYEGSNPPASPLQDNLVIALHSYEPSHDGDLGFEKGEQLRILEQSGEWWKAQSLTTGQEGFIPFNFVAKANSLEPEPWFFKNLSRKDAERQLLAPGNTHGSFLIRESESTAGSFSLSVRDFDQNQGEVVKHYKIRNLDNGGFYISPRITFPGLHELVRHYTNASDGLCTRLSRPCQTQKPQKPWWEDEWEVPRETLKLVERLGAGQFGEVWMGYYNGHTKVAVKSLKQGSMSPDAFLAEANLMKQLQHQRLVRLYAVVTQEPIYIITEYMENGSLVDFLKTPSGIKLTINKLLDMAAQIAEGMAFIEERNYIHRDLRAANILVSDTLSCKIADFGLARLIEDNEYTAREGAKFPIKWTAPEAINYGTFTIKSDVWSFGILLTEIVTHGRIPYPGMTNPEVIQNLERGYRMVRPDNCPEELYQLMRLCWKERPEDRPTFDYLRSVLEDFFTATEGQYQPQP

What was measured:
[1] = biological target: Tyrosine-protein kinase JAK1 (Homo sapiens, UniProt P23458); assay: Inhibition of human JAK1 at 10 uM relative to control
[2] = biological target: Cyclin-dependent kinase 2 (Homo sapiens, UniProt P24941); assay: Inhibition of human CDK2 at 10 uM relative to control
[3] = biological target: Receptor-type tyrosine-protein kinase FLT3 (Homo sapiens, UniProt P36888); assay: Inhibition of human FLT3 at 10 uM relative to control
[4] = biological target: Tyrosine-protein kinase Lyn (Homo sapiens, UniProt P07948); assay: Inhibition of human LYN at 10 uM relative to control
[5] = biological target: AMPK alpha2/beta1/gamma1 (Homo sapiens) (UniProt P54646+P54619+Q9Y478); assay: Inhibition of human AMPK alpha2/beta1/gamma1 at 10 uM relative to control; type: protein-complex assay
[6] = biological target: Aurora kinase B (Homo sapiens, UniProt Q96GD4); assay: Inhibition of human Aurora B at 10 uM relative to control
[7] = biological target: Tyrosine-protein kinase BTK (Homo sapiens, UniProt Q06187); assay: Inhibition of human BTK at 10 uM relative to control
[8] = biological target: Interleukin-1 receptor-associated kinase 4 (Homo sapiens, UniProt Q9NWZ3); assay: Inhibition of human IRAK4 at 10 uM relative to control
[9] = biological target: Serine/threonine-protein kinase mTOR (Homo sapiens, UniProt P42345); assay: Inhibition of human mTOR at 10 uM relative to control
[10] = biological target: T1, Serine/threonine-protein kinase 17B (Homo sapiens) (UniProt O94768); assay: Inhibition of human DRAK2 at 10 uM relative to control
T1 sequence (whole entry): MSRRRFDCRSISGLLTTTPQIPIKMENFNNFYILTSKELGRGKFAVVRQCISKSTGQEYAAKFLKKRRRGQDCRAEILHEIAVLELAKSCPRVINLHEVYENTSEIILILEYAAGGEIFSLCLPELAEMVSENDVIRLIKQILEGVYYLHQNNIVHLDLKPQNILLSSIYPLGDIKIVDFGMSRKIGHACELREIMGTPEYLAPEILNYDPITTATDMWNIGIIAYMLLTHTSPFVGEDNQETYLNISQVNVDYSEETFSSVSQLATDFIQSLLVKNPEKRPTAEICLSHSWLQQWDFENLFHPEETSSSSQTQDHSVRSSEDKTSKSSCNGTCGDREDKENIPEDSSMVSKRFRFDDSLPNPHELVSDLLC

[11] = biological target: Tyrosine-protein kinase Lck (Homo sapiens, UniProt P06239); assay: Inhibition of human LCK at 10 uM relative to control
[12] = biological target: T2, NUAK family SNF1-like kinase 1 (Homo sapiens) (UniProt O60285); assay: Inhibition of human ARK5 at 10 uM relative to control
T2 sequence (whole entry): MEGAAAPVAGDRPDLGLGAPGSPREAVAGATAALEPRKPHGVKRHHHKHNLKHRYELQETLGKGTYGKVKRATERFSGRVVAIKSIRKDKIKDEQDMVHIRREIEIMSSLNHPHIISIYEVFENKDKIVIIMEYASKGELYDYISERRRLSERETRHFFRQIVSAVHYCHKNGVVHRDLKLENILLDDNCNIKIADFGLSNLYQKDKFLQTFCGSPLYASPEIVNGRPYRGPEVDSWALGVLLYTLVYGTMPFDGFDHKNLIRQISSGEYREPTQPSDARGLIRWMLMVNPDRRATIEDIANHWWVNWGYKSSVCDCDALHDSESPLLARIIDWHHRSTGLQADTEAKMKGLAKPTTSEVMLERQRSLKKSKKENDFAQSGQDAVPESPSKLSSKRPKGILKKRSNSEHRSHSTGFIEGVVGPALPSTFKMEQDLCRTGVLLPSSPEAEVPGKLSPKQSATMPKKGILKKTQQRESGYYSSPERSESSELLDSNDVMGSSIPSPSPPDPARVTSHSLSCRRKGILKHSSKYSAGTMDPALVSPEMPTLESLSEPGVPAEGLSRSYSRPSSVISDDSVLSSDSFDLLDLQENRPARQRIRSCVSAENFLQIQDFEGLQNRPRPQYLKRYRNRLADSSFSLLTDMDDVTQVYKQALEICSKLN

[13] = biological target: T3, Serine/threonine-protein kinase BRSK2 (Homo sapiens) (UniProt Q8IWQ3); assay: Inhibition of human BRSK2 at 10 uM relative to control
T3 sequence (whole entry): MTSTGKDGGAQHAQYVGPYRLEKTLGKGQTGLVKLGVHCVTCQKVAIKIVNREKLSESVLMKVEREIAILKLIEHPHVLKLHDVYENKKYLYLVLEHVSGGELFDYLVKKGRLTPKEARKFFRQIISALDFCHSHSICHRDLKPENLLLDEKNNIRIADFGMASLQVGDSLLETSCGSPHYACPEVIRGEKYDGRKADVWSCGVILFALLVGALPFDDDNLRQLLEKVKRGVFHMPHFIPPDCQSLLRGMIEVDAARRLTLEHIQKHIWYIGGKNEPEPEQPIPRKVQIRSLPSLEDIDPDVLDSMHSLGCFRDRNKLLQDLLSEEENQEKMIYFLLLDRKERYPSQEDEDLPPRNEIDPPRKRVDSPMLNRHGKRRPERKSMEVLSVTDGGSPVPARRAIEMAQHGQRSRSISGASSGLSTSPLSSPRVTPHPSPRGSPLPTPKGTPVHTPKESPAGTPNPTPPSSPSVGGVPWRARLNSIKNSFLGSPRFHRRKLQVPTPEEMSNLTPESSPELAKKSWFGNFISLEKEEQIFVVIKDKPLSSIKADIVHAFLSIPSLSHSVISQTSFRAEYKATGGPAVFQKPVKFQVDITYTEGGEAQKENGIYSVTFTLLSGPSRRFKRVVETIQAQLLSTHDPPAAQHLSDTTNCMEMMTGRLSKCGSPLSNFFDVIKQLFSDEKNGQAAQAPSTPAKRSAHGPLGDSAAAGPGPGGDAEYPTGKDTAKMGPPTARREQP

`C[C@@H]1COCCN1c1nc(-c2ccnc3[nH]ccc23)nc2c1ccn2S(C)(=O)=O` gave an inhibition [1] of 15.2%, an inhibition [2] of 13.3% and an inhibition [3] of 5.51%. The inhibition [4] was 7.02%, the inhibition [5] was 11.1% and the inhibition [6] was 19.5%. For the same compound, the inhibition [7] was 33.6%, the inhibition [8] was 20.7% and the inhibition [9] was 97.4%. The inhibition [10] was 5.84%, the inhibition [11] was 72.4% and the inhibition [12] was 82.5%. For the same compound, the inhibition [13] was 23.5%.
